In patent publication US10258691B2 (SignPath Pharma Inc., priority 2014, dated 2019):
Marks after values point to notes of the source that are not given here.

Protein sequences, listed by entry. Tags and fused reporters are not part of them. Lines headed by an entry give the natural chain unless they say otherwise; changes in a name come on top.
UniProt Q12809: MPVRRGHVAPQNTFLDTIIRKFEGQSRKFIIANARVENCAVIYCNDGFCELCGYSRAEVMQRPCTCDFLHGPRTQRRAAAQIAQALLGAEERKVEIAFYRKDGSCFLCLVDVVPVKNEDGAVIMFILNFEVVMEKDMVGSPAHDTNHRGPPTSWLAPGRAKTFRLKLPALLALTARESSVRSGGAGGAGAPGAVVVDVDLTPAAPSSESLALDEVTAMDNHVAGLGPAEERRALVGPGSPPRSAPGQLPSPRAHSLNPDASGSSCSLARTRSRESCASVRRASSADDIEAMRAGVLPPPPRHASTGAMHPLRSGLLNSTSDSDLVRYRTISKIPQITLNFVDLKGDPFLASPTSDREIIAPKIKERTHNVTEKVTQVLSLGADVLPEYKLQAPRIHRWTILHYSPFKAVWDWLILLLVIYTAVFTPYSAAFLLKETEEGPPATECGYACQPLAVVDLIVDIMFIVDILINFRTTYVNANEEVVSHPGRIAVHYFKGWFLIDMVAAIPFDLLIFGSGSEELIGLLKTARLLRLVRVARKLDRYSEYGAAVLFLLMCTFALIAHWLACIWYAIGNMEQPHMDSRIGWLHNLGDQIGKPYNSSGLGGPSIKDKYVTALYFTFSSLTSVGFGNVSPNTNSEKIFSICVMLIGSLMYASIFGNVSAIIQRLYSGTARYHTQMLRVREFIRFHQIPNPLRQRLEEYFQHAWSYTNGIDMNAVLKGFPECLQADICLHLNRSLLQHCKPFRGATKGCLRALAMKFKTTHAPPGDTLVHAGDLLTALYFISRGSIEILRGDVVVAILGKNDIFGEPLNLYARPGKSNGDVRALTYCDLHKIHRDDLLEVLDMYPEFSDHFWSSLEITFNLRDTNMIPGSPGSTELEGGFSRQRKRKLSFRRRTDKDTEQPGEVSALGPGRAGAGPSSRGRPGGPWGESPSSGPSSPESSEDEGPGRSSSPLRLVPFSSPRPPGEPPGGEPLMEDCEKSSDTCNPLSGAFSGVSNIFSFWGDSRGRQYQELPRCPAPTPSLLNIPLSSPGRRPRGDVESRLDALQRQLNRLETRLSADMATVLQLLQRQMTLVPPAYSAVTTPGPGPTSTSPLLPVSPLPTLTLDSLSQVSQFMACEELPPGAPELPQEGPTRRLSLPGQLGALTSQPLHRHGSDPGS

Assays:
hERG [1] = target: T1, hERG (Homo sapiens, UniProt Q12809); test: Whole-cell patch-clamp, protective effect of 10:0-18:0 Lyso PG and 14:0 EGPG against hERG inhibition by Nilotinib; type: cell-based; set-up: expressed in transfected cells; host or cells: HEK 293, stably transfected with the hERG gene (HEK-hERG); conditions: Nilotinib 0.5 μg/mL, lipid […]
hERG [2] = target: T1, hERG; test: Whole-cell patch-clamp, protective effect of DMPC, DMPG, DMPC/DMPG, LysoPG and LysoPC against hERG inhibition by Nilotinib; conditions: hERG tail current density relative to baseline 1.000; HEK 293; 5 min exposure; Nilotinib 0.1 μM (alone in DMSO, with lipid in aqueous solution); 14:0 LysoPG […]

Cc1cn(-c2cc(NC(=O)c3ccc(C)c(Nc4nccc(-c5cccnc5)n4)c3)cc(C(F)(F)F)c2)cn1 [Nilotinib, reference compound]
Corrected Normalized Current Density (hERG [1]; corrected for solvent effect and run-down): 0.301* | Normalized Current Density (hERG [1]; hERG tail current density relative to baseline 1.000, HEK 293): 0.154 | Normalized Current Density (hERG [2]): 0.308
